# Test results taken from PubChem BioAssay AID719 (SRMLSC, 2007).
# This is a selection; strong and weak results do not stand in their true shares. Calls of active or inactive are those of the source.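 The calls were made as follows: active = viability at or below 50% in the single dose screen; inactive = viability above 50%.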
# Test: antiproliferative effect on LL 47 fibroblasts – human, LL 47 cells, CellTiter-Glo luminescence, primary screen (AID 719);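 also: compound exposure lasted 72 h before the ATP readout; 100% = median luminescence of untreated cell-only wells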
# Conditions: LL 47 human lung fibroblast viability, ATP luminescence; at 10 µM; stronger effect = lower value
# In short: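 Material: human lung fibroblast line LL 47, low passage; Evaluation: viability percentage against median untreated-cell control; Buffer or medium: 15% FBS in IMEM; Incubation: 72 h compound exposure at 37 °C after overnight plating; Dosing: 0.1% DMSO in all compound wells; Measured by: CellTiter-Glo luminescence.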
row,SMILES,viability
1,N/C(=N\O)c1c(N)no[n+]1[O-],inactive: 109%
2,c1ccc(CN2CCC(Nc3ccccc3)CC2)cc1,inactive: 99.7%
3,Fc1ccccc1NC1CCN(Cc2ccccc2)CC1,inactive: 92.2%
4,CCOc1ncccc1C(=O)NCC1(N2CCOCC2)CCCCC1,inactive: 98.2%
5,CCC(CO)(C(=O)OC1CN2CCC1CC2)c1ccccc1 (centres undefined),inactive: 94.7%
6,O=C(OC1CN2CCC1CC2)C1c2ccccc2Oc2ccccc21 (centres undefined),inactive: 104%
7,O=C(NCC1(N2CCOCC2)CCCCC1)c1cc2ccccc2o1,inactive: 93.7%
8,N#CC1(Nc2ccccc2)CCN(CCc2ccccc2)CC1,inactive: 88.2%
9,O=C(NCC1(N2CCOCC2)CCCCC1)c1cc(=O)[nH]c2ccccc12,inactive: 106%
